From BigSolDB 2.1

**Q.** With `CCCc1nn(C)c2c(=O)[nH]c(-c3cc(S(=O)(=O)N4CCN(C)CC4)ccc3OCC)nc12.O=C(O)CC(O)(CC(=O)O)C(=O)O` as the compound, how does the solubility (mole fraction) (in ethylene glycol, 293.2 K) read?
**A.** The solubility (mole fraction) was 0.00056.

**Q.** What about the solubility (mole fraction) (in ethylene glycol, 298.2 K) of the same compound?
**A.** Its solubility (mole fraction) is 0.00064.

**Q.** And the solubility (mole fraction) (in ethylene glycol, 303.2 K)?
**A.** Its solubility (mole fraction) is 0.000772.

**Q.** And the solubility (mole fraction) (in ethylene glycol, 308.2 K)?
**A.** The solubility (mole fraction) was 0.000935.

**Q.** What about the solubility (mole fraction) (in ethylene glycol, 313.2 K) of the same compound?
**A.** Its solubility (mole fraction) is 0.00116.

**Q.** And the solubility (mole fraction) (in n-propanol, 293.2 K)?
**A.** The solubility (mole fraction) was 6.79e-05.

**Q.** What about the solubility (mole fraction) (in n-propanol, 298.2 K) of the same compound?
**A.** Its solubility (mole fraction) is 8.03e-05.

**Q.** What about the solubility (mole fraction) (in n-propanol, 303.2 K) of the same compound?
**A.** Its solubility (mole fraction) is 0.000108.

**Q.** And the solubility (mole fraction) (in n-propanol, 308.2 K)?
**A.** Its solubility (mole fraction) is 0.000176.

**Q.** What about the solubility (mole fraction) (in n-propanol, 313.2 K) of the same compound?
**A.** The solubility (mole fraction) was 0.000297.
